Consider 5 molecules from ChEMBL document CHEMBL6182847, “Design, synthesis, and biological evaluation of novel aminopyrimidine derivatives as EGFR inhibitors” (Bioorg Med Chem Lett, 2025).

Structures are written as SMILES. Some results are limits rather than exact numbers.

This test can be described thus: Selectivity ratio of IC50 for inhibition of wild-type EGFR (unknown origin) to IC50 for inhibition of EGFR L858R/T790M/C797S mutant (unknown origin).
For `COc1cc(N2CCC(N3CCN(C)CC3)CC2)c(C)cc1Nc1ncc(Br)c(-n2ccc(-c3ccccc3NS(=O)(=O)C3CC3)n2)n1`, the Ratio IC50 was above 53.3.
To `COc1cc(N2CCC(N3CCN(C)CC3)CC2)c(C)cc1Nc1nccc(-n2cc(NC(=O)C3CC3)cn2)n1` belongs 8.99; to `COc1cc(N2CCC(N3CCN(C)CC3)CC2)c(C)cc1Nc1nccc(-n2cc(NC(=O)C=C(C)C)cn2)n1`, 7.15; to `C=CC(=O)Nc1cnn(-c2ccnc(Nc3cc(C)c(N4CCC(N5CCN(C)CC5)CC4)cc3OC)n2)c1`, 6.2.
`COc1cc(N2CCC(N3CCN(C)CC3)CC2)c(C)cc1Nc1nccc(-n2cc(NS(=O)(=O)C3CC3)cn2)n1`: the Ratio IC50 is 8.43.
